The list shows a part of the results, in another mix than the full data. Activity calls are given as the source filed them. No stated cut-off is given here; in the data, active means inhibition above about 37%; inactive means the rest.

This experiment in a line: DNA intercalator displacement agents – biochemical, FID fluorescence, artefact control for HCV NS3 helicase inhibitor project, primary screen (AID 1845).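 Further: 0% = vehicle and 100% = reference compound; higher means more ethidium bromide displaced from hairpin DNA.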 The note with it: DNA fluorescent intercalator displacement, at 7.9 µM, stronger effect = higher value.
Broadly, the inhibition is the relative decrease from the control value, in per cent. Take `Cc1cccc(C)c1OP(C)(N)=O` (stereo unspecified): the inhibition was inactive: 0.97%.

As for `CC(C)(C)c1ccc(OP(C)(=O)Nc2ccc(SC(F)(F)F)cc2)cc1` (stereo unspecified), the inhibition is inactive: -14.5%.

For `O=[N+]([O-])c1ccc2c(c1)C=Nc1ccccc1O2`, the inhibition is inactive: 9.09%.

As to `COc1ccc(OP(C)(=O)Nc2cccc(F)c2)cc1` (stereo unspecified), the inhibition is inactive: -6.44%.

For `COc1ccccc1OP(C)(=O)Nc1cc(Cl)ccc1C` (stereo unspecified), the inhibition was inactive: -20.1%.

Consider `Cc1cc(C)cc(OP(C)(N)=O)c1` (stereo unspecified), for which the inhibition was inactive: 3.22%.

Turning to `CCOC(=O)c1ccc(NP(C)(=O)Oc2ccccc2)cc1` (stereo unspecified), the inhibition is inactive: -7.68%.

For `Cc1ccc(NP(C)(=O)Oc2ccccc2)c(C)c1` (stereo unspecified), the inhibition is inactive: -11.6%.

`COc1ccccc1OP(C)(=O)Nc1ccc(C)cc1` (stereo unspecified): the inhibition was inactive: -8.18%.

With `CCN(CC)CCCOC(=O)C(O)(c1ccccc1)c1ccccc1`, the inhibition is inactive: 6.82%.

On to `Cc1cc(C)cc(OP(C)(=O)Nc2ccc(SC(F)(F)F)cc2)c1` (stereo unspecified), for which the inhibition was inactive: -10.2%.

With `CP(=O)(NC(=O)Nc1ccccc1)Oc1ccccc1` (stereo unspecified), the inhibition was inactive: 1.78%.

For the compound `CCc1ccc(OP(C)(=O)N2CCN(c3ccc([N+](=O)[O-])cc3)CC2)cc1` (stereo unspecified), the inhibition was inactive: -30.2%.

`CP(=O)(Oc1ccccc1)OC(c1ccccc1)C(F)(F)F` (stereo unspecified): the inhibition was inactive: -11.6%.

For `Cc1cccc(C)c1OP(C)(=O)Nc1ccc(SC(F)(F)F)cc1` (stereo unspecified), the inhibition is inactive: -10%.

Take `CP(=O)(Nc1ccc(SC(F)(F)F)cc1)Oc1ccc(Cl)cc1` (stereo unspecified): the inhibition is inactive: -21.5%.

For the compound `CP(=O)(Nc1ccccn1)Oc1ccc(Cl)cc1` (stereo unspecified), the inhibition was inactive: -0.23%.

Take `CCOP(C)(=S)SCC(=O)NC(C)C(=O)O` (stereo unspecified): the inhibition is inactive: -1.65%.

For the compound `CCOC(=O)c1ccc(NP(C)(=O)Oc2ccc(OC)cc2)cc1` (stereo unspecified), the inhibition was inactive: -21.6%.

For the compound `COc1ccccc1OP(C)(=O)Nc1ccccc1` (stereo unspecified), the inhibition was inactive: -2.26%.

For `CP(=O)(Nc1ccccc1Br)Oc1ccccc1` (stereo unspecified), the inhibition was inactive: -2.82%.

Consider `CP(=S)(Nn1cnnc1)Oc1ccccc1` (stereo unspecified), for which the inhibition was inactive: 0.11%.

As to `CCOC(=O)C(CC)C1=NC(C)(C)Cc2ccccc21.O=[N+]([O-])c1cc([N+](=O)[O-])c(O)c([N+](=O)[O-])c1` (stereo unspecified), the inhibition is inactive: -1.07%.

In the case of `O=[N+]([O-])c1cc([N+](=O)[O-])c(Nc2nnnn2CCO)c([N+](=O)[O-])c1`, the inhibition was inactive: 2.8%.

On to `CCCOc1ccc(NP(C)(=O)Oc2ccc(Cl)cc2)cc1` (stereo unspecified), for which the inhibition was inactive: -27.9%.

Consider `CP(=O)(Nc1ccc(SC(F)(F)F)cc1)Oc1ccccc1` (stereo unspecified), for which the inhibition was inactive: -16.9%.

As for `COc1ccccc1OP(C)(=O)Nc1c(C)cccc1C` (stereo unspecified), the inhibition is inactive: -8.12%.

Take `CN1CCCCC1COC(=O)C1(O)c2ccccc2CCc2ccccc21` (stereo unspecified): the inhibition is inactive: 5.39%.

As to `O=[N+]([O-])c1cc([N+](=O)[O-])c(-n2nnc3ccccc32)c([N+](=O)[O-])c1`, the inhibition was inactive: 2.16%.

In the case of `Cc1nc2ccc3ccccc3c2s1.O=[N+]([O-])c1cc([N+](=O)[O-])c(O)c([N+](=O)[O-])c1`, the inhibition was inactive: 1.89%.

On to `Cc1cc(C)cc(OP(C)(=O)Nc2ccc(C)cc2C)c1` (stereo unspecified), for which the inhibition is inactive: -23.9%.

`CCOC(=O)c1ccc(NP(C)(=O)Oc2cc(C)cc(C)c2)cc1` (stereo unspecified): the inhibition was inactive: -30.5%.

With `COc1ccccc1OP(C)(=O)Nc1cccc(Br)c1` (stereo unspecified), the inhibition is inactive: -22.2%.

Turning to `Cc1cc(C)cc(OP(C)(=O)Nc2ccccn2)c1` (stereo unspecified), the inhibition was inactive: -3.01%.

Regarding `CP(=O)(Nc1cccc(Br)c1)Oc1ccccc1` (stereo unspecified), the inhibition was inactive: -8.58%.

As for `Cc1ccc(C)c(NP(C)(=O)Oc2ccccc2)c1` (stereo unspecified), the inhibition is inactive: -6.6%.

On to `O=C(O)c1cccc(Nc2c([N+](=O)[O-])cc([N+](=O)[O-])cc2[N+](=O)[O-])c1`, for which the inhibition is inactive: -0.37%.

With `CC1=NCCc2c1[nH]c1ccccc21.O=[N+]([O-])c1cc([N+](=O)[O-])c(O)c([N+](=O)[O-])c1`, the inhibition is inactive: 13.9%.

As to `COc1ccc(OP(C)(=O)Nc2ccc(SC(F)(F)F)cc2)cc1` (stereo unspecified), the inhibition was inactive: -21%.

As to `CCOC(=O)c1ccc(NP(C)(=O)Oc2ccc(F)cc2)cc1` (stereo unspecified), the inhibition is inactive: -25.7%.

Consider `CCCCCOc1ccc(NP(C)(=O)Oc2ccc(Cl)cc2Cl)cc1` (stereo unspecified), for which the inhibition was inactive: -6.09%.

As for `O=[N+]([O-])c1cc([N+](=O)[O-])c(OC2CCCCC2O)c([N+](=O)[O-])c1` (stereo unspecified), the inhibition is inactive: 1.44%.

Turning to `CP(=O)(Nc1ccccc1)Oc1ccc(F)cc1` (stereo unspecified), the inhibition is inactive: -3.8%.

`CCN(CC)CCCOC(=O)C(O)(c1ccccc1)C1CCCCC1` (stereo unspecified): the inhibition was inactive: 10.2%.

`CC(C)c1ccc(OP(C)(=O)Nc2ccc(SC(F)(F)F)cc2)cc1` (stereo unspecified): the inhibition was inactive: -15.7%.

Consider `CP(=O)(Nc1ccccc1F)Oc1ccccc1` (stereo unspecified), for which the inhibition is inactive: -1.37%.

In the case of `O=C(OCCN1CCN(CCOCc2ccccc2)CC1)C(O)(c1ccccc1)c1ccccc1`, the inhibition is inactive: 11.1%.

With `O=C(OC1CN2CCC1CC2)c1ccc([N+](=O)[O-])cc1` (stereo unspecified), the inhibition is inactive: 2.67%.

For the compound `CCOP(C)(=S)SCC(=O)NC(C)(CC)C(=O)O` (stereo unspecified), the inhibition is inactive: 0.14%.

Take `CP(=O)(Nc1ccc(SC(F)(F)F)cc1)Oc1ccc(F)cc1` (stereo unspecified): the inhibition is inactive: -16.8%.

Consider `Cc1ccccc1NP(C)(=O)Nc1ccccc1C`, for which the inhibition was inactive: -1.71%.

Consider `CP(=O)(Nc1ccc2c(c1)OCCO2)Oc1ccccc1` (stereo unspecified), for which the inhibition was inactive: -6.05%.

In the case of `COc1ccc(NP(C)(=O)Oc2ccccc2OC)cc1` (stereo unspecified), the inhibition was inactive: -5.24%.

In the case of `CN(C)CCOC(=O)C(O)(c1ccccc1)C1CCCCC1` (stereo unspecified), the inhibition is inactive: 9.33%.

In the case of `COc1ccc(OP(C)(=O)Nc2cccc(Br)c2)cc1` (stereo unspecified), the inhibition was inactive: -14.7%.

For the compound `Cc1cc(-c2cccc3ccccc23)c(C)cn1.O=[N+]([O-])c1cc([N+](=O)[O-])c(O)c([N+](=O)[O-])c1`, the inhibition is inactive: -6.69%.

As for `O=[N+]([O-])c1cc([N+](=O)[O-])c(NCC2CCS(=O)(=O)C2)c([N+](=O)[O-])c1` (stereo unspecified), the inhibition was inactive: -3.83%.

Turning to `O=[N+]([O-])c1ccc(OP2(=O)COCCO2)cc1` (stereo unspecified), the inhibition was inactive: -4.31%.

Consider `CP(=O)(OC12CC3CC(CC(C3)C1)C2)OC12CC3CC(CC(C3)C1)C2`, for which the inhibition is inactive: -26%.

On to `CCOC(=O)c1ccc(NP(C)(=O)Oc2ccc(Cl)cc2)cc1` (stereo unspecified), for which the inhibition was inactive: -21.3%.

Consider `CCc1ccc(OP(C)(=O)Nc2cccnc2)cc1` (stereo unspecified), for which the inhibition is inactive: -6.49%.

These data come from PubChem BioAssay AID1845 (The Scripps Research Institute Molecular Screening Center, 2009).
